From US20200010482A1, “INHIBITORS OF BETA SECRETASE” (Janssen Pharmaceutica NV, priority 2017, published 2020) come the findings set out here.

Protein sequences, listed by entry. Tags and fused reporters are not part of them. Residues count along the entry.
UniProt P56817, 46-501 limits assumed: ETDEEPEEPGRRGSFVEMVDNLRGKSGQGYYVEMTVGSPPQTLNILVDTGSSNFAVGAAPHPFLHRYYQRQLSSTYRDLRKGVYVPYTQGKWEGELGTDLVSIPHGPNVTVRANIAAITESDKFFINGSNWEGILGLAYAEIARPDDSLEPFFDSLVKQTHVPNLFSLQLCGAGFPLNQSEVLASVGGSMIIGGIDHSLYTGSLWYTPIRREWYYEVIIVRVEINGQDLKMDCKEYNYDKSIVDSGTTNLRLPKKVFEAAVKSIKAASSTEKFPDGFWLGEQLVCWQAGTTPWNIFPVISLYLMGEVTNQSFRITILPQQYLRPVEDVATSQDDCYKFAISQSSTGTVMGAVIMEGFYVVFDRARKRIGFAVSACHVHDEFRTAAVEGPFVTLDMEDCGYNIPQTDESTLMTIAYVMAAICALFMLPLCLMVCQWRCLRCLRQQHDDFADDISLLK

The target of the first test is β-secretase I (BACE1) (Homo sapiens, UniProt P56817). Nature of the test: Biochemical assay, automated (CyclOps), BACE1. The conditions noted are these: automated CyclOps bioassay. As for the experimental part:
Unless otherwise indicated all biochemicals were purchased from Sigma-Aldrich Chemical Company, Poole, Dorset, U.K. and non-aqueous solvents, of analytical or higher grade, were purchased from ThermoFisher Scientific, Loughborough, U.K. MilliQ water (Elix 5 & MilliQ Gradient; Merck Millipore) was used as the base aqueous solvent to make up the biological buffers. Base assay buffer was prepared by adding a 50 mM solution of citric acid (1.00244; Merck Biosciences) to stirring solution of 50 mM trisodium citrate (1.06448; Merck Biosciences) until a final pH of 5.0 was achieved. […] All assays were routinely carried out in 384-well assay plates (Costar 4514; Corning Life Sciences) and incubated at 37±1° C. for 60 min. prior to reading the endpoint fluorescence intensity. The (7-methoxyl coumarin-4-yl)acetic acid based substrate β-secretase substrate VI (M2465; Bachem) was prepared as a 1 mM stock in 100% DMSO (D/4121/PB08; ThermoFisher). Assay buffer was prepared by adding DMSO to base buffer to a final concentration of 1% (vol./vol.). β-secretase I (18.64 μM; “BACE1”) and β-secretase II (4.65 μM; “BACE2”) were obtained from Janssen Pharmaceutica, Beerse, Belgium and were stored as frozen aliquots (˜20 μl) and thawed as required.
Typically 12.5 μl of assay buffer was dispensed to rows B to P of the assay plate. To row A was added 18.75 μl of test compound diluted appropriately in assay buffer. A 6.25 μl aliquot of sample was transferred from row A to row B and the sample mixed three times by pipette. The process was repeated down the plate and 6.25 μl of solution discarded at row N post-mix. Rows O and P were designated as the positive and negative controls. To row P was added 6.25 μl base buffer. To rows A to O was added 6.25 μl enzyme (freshly prepared 40 nM BACE1 or 40 nM BACE2) diluted in base buffer. To initiate the assay 6.25 μl of freshly prepared 80 μM substrate, made up by diluting the 1 mM in 100% DMSO solution into HPLC grade water (Optima W6-212; ThermoFisher), was added to all the wells. The assay plate was covered and incubated at 37±1° C. for 60 min. The fluorescence intensity of the wells was read at 360/405 nm (excitation/emission) utilising a nine reads per well protocol (50 ms integration; density of 3, 0.25 mm spacing; SpectraMAX Paradigm plate reader; TUNE cartridge; SoftMax Pro v 6.3 software; Molecular Devices UK Ltd., Wokingham, Berkshire, UK) and outputting the median value of the nine reads as a text file. Data analysis was carried out using Prism software v 6.3 (GraphPad Inc., San Diego, Calif., USA) using the non-linear regression analysis models supplied by the vendor. For IC50 determinations the four parameter logistic variable slope model was used to fit the raw fluorescence intensity data with the ‘bottom’ fixed to the negative control.
The CyclOps bioassay module consisted of a fraction collection station, a reagent station, liquid handling robotics, plate store and an integrated plate reader (SpectraMAX Paradigm, TUNE cartridge, SoftMax Pro v 6.3; Molecular Devices). The fraction collection station composed of a 384 well collection plate (P-384-240SQ-C; Axygen, Union City, Calif., USA) mounted on a H-portal carriage (Festo AG & Co. KG, Esslingen, Germany), a syringe drive and a two-way six port injection valve fitted with a 200 μl loop (VICI AG International, Schenkon Switzerland). The output of the injection valve was addressable to all the positions of a 384 well collection plate. The reagent station consisted of hydraulically cooled (10-12° C.) aluminium segments; each manufactured to house a SBS microtiter plate footprint. Independent addressable reagent stations were housed within these sections. Where required, custom aluminium housings were used to accommodate standard laboratory plastic ware (e.g. Eppendorf tubes, Falcon tubes, etc.). As and when required the reagent reservoirs were covered and the lids contained holes through which the Teflon-coated probe could access solutions. […]
Regarding `COc1ncc(-c2c(C)noc2C)c2c1C[C@]1(c3ccc(F)cc3F)N=C(N)SC[C@@H]1C2`, the “AUTOMATED ASSAY BACE1 pIC50” value is on record as 7.795.

As for `COc1ncc(-c2ccc(F)cc2C)c2c1C[C@]1(c3cc(OCC4CCOCC4)ccc3F)N=C(N)SC[C@@H]1C2`, the “AUTOMATED ASSAY BACE1 pIC50” value is recorded as 8.26. `COc1ncc(-c2c(C)noc2C)c2c1C[C@]1(c3cc(OCC4CCOCC4)ccc3F)N=C(N)SC[C@@H]1C2`: the “AUTOMATED ASSAY BACE1 pIC50” value was determined as 7.07.

Consider `COc1ncc(-c2c(C)noc2C)c2c1C[C@]1(c3cc(OCc4ncccn4)ccc3F)N=C(N)SC[C@@H]1C2`, for which the “AUTOMATED ASSAY BACE1 pIC50” value is 7.77. Take `COc1ncc(-c2cc(C)nc3c2CCCC3)c2c1C[C@]1(c3ccc(F)cc3F)N=C(N)SC[C@@H]1C2`: the “AUTOMATED ASSAY BACE1 pIC50” value stood at 5.87. With `COc1ccccc1-c1cnc(OC)c2c1C[C@H]1CSC(N)=N[C@@]1(c1ccc(F)cc1F)C2`, the “AUTOMATED ASSAY BACE1 pIC50” value is recorded as 7.24.

For the compound `COc1ncc(-c2c(C)noc2C)c2c1C[C@]1(c3cc(OCC4CC4)ccc3F)N=C(N)SC[C@@H]1C2`, the “AUTOMATED ASSAY BACE1 pIC50” value is 7.72.

The same test, now with this note: automated CyclOps bioassay; tested form: free base.
`COc1ccc(F)c(-c2cnc(OC)c3c2C[C@H]2CSC(N)=N[C@@]2(c2ccc(F)cc2F)C3)c1`: the “AUTOMATED ASSAY BACE1 pIC50” value is listed as 7.5.

Another test concerns Abeta total produced and secreted by SKNBE2 cells expressing hAPP695. Nature of the test: Cellular αLisa assay in SKNBE2 cells, Abeta total. The conditions noted are these: SKNBE2 cells expressing hAPP695, 18 hours incubation. On the procedure: In two αLisa assays the levels of Abeta total and Abeta 1-42 produced and secreted into the medium of human neuroblastoma SKNBE2 cells are quantified. The assay is based on the human neuroblastoma SKNBE2 expressing the wild type Amyloid Precursor Protein (hAPP695). The compounds are diluted and added to these cells, incubated for 18 hours and then measurements of Abeta 1-42 and Abeta total are taken. Abeta total and Abeta 1-42 are measured by sandwich αLisa. αLisa is a sandwich assay using biotinylated antibody AbN/25 attached to streptavidin coated beads and antibody Ab4G8 or cAb42/26 conjugated acceptor beads for the detection of Abeta total and Abeta 1-42 respectively. In the presence of Abeta total or Abeta 1-42, the beads come into close proximity. The excitation of the donor beads provokes the release of singlet oxygen molecules that trigger a cascade of energy transfer in the acceptor beads, resulting in light emission. Light emission is measured after 1 hour incubation (excitation at […] and emission at 615 nm).
A best-fit curve is fitted by a minimum sum of squares method to the plot of % Controlmin versus compound concentration. From this an IC50 value (inhibitory concentration causing 50% inhibition of activity) can be obtained. • LC=Median of the low control values=Low control: cells preincubated without compound, without biotinylated Ab in the αLisa • HC=Median of the High control values=High Control: cells preincubated without compound
% Effect=100−[(sample−LC)/(HC−LC)*100]
% Control=(sample/HC)*100
% Controlmin=(sample−LC)/(HC−LC)*100
Regarding `COc1ncc(-c2cc(C)nc3c2CCCC3)c2c1C[C@]1(c3ccc(F)cc3F)N=C(N)SC[C@@H]1C2`, the “CELLULAR αLISA ASSAY IN SKNBE2 CELLS ABETA TOTAL pIC50” value was 7.37.
